Patent publication US10465196B2, “Treatment of C9FTD/ALS by targeting RNA expanded repeat sequences” (THE SCRIPPS RESEARCH INSTITUTE, priority 2014, dated 2019)

Test system: r(GGGGCC)66
Experiment: Identification of cellular RNA targets by 1a-CA-biotin pull-down and qRT-PCR (competitive profiling)
Assay type: cell-based
Settings: (GGGGCC)66-expressing cells; normalized to untreated lysate

2-(5-(6-(4-(4-(bis(2-chloroethyl)amino)phenyl)butanamido)-2-(5-(2-oxohexahydro-1H-thieno[3,4-d]imidazol-4-yl)pentanamido)hexanamido)pentyl)-9-hydroxy-5,11-dimethyl-6H-pyrido[4,3-b]carbazol-2-ium [1a-CA-biotin]
enrichment of r(GGGGCC)66 compared to 18S rRNA in pull-down fractions: 80 fold
